## scFv variants of Ab-14 (light chain) against a SARS-CoV-2 spike peptide

Reference: Engelhart et al. 2022, doi:10.1038/s41597-022-01779-4. File: FLAb, binding data.

Antigen: PDVDLGDISGINAS, a 14-residue peptide of the SARS-CoV-2 spike HR2 region.

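Phage display of a naive human antibody library on the peptide gave the parent. Library AAYL50 holds single substitutions and randomly drawn double and triple substitutions in the CDRs. The scFvs were displayed on barcoded MATa yeast, the peptide on MATalpha yeast. After mating in shaken culture at 30 °C for 16 h, diploids were selected and their barcode pairs sequenced. Read counts were normalised to the haploid input and turned into Kd by a linear fit to BCL2-family pairs of known affinity, for each replicate. There are three technical replicates.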

The variants keep the heavy chain, the linker and the frameworks of Ab-14 (scFv order VH, three GGGGS repeats, VL).
VH: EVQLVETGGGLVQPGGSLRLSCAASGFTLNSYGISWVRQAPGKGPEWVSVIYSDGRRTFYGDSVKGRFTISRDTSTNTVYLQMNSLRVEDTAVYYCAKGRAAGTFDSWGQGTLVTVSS
VL: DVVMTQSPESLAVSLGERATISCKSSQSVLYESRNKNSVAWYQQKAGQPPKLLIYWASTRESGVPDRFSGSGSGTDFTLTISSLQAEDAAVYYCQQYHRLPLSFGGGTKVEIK

Changes read parent residue, position, new residue, counted from the first residue of the VL shown.
Values are log10 of the apparent Kd in nM; lower means stronger binding.
"nd" marks a missing value. The strain was present, yet no cells mated with the target were sequenced in that replicate, which points to weak or no binding.

{"changes": "K36D/A40L/R99V", "log10 Kd, replicates": "3.93 nd nd", "empty controls": "2 of 9 (3.85)"}
{"changes": "V39G/Q96E/S103P", "log10 Kd, replicates": "nd 3.43 6.06", "empty controls": "4 of 9 (4.65)"}
{"changes": "A40I/L102D", "log10 Kd, replicates": "nd nd nd", "empty controls": "0 of 9"}
{"changes": "K24A/V29G/A40D", "log10 Kd, replicates": "nd nd nd", "empty controls": "0 of 9"}
{"changes": "Y31H/R34N/Q96K", "log10 Kd, replicates": "1.52 1.34 1.71", "empty controls": "1 of 9 (2.70)"}
{"changes": "S25K/E61D/H98I", "log10 Kd, replicates": "2.70 2.44 2.37", "empty controls": "1 of 9 (3.30)"}
{"changes": "K24G/N35G/S62L", "log10 Kd, replicates": "1.35 1.72 1.84", "empty controls": "2 of 9 (3.67)"}
{"changes": "Y31L/S33P/N37K", "log10 Kd, replicates": "1.41 1.10 1.34", "empty controls": "3 of 9 (3.77)"}
{"changes": "A40I/Y97P/P101W", "log10 Kd, replicates": "nd nd nd", "empty controls": "2 of 9 (4.10)"}
{"changes": "N35G/A40Q/Q96W", "log10 Kd, replicates": "nd 3.75 nd", "empty controls": "1 of 9 (4.75)"}
{"changes": "S25Y/N35C/H98Y", "log10 Kd, replicates": "3.04 3.07 3.28", "empty controls": "6 of 9 (4.85)"}
{"changes": "K24L/R34V/N35Y", "log10 Kd, replicates": "nd nd 4.41", "empty controls": "3 of 9 (4.41)"}
{"changes": "S26R/A40R/Q95C", "log10 Kd, replicates": "nd nd nd", "empty controls": "1 of 9 (3.57)"}
{"changes": "Y31C/S38N/S103V", "log10 Kd, replicates": "1.95 1.75 1.75", "empty controls": "0 of 9"}
{"changes": "Q27I/S28N/Y31S", "log10 Kd, replicates": "2.40 2.64 2.54", "empty controls": "6 of 9 (4.15)"}
{"changes": "Q27C/N35M/S38K", "log10 Kd, replicates": "nd nd nd", "empty controls": "0 of 9"}
{"changes": "S33L/Q95H/Y97C", "log10 Kd, replicates": "nd nd nd", "empty controls": "1 of 9 (4.03)"}
{"changes": "N35W/S58W/Q95D", "log10 Kd, replicates": "5.13 3.15 5.26", "empty controls": "7 of 9 (4.42)"}
{"changes": "N37P/S38Q/V39F", "log10 Kd, replicates": "nd nd nd", "empty controls": "1 of 9 (4.41)"}
{"changes": "S26G/H98T", "log10 Kd, replicates": "nd nd nd", "empty controls": "2 of 9 (4.04)"}
{"changes": "T59G/E61Q/Y97L", "log10 Kd, replicates": "3.78 4.49 4.56", "empty controls": "1 of 9 (4.42)"}
{"changes": "N37W/W56H/P101I", "log10 Kd, replicates": "0.71 0.81 0.59", "empty controls": "1 of 9 (3.34)"}
{"changes": "Q27C/S58Y/S103R", "log10 Kd, replicates": "nd nd nd", "empty controls": "0 of 9"}
{"changes": "Q27L/N35F/S103I", "log10 Kd, replicates": "3.19 2.46 2.72", "empty controls": "3 of 9 (4.24)"}
{"changes": "S26N/S28Q/V39Y", "log10 Kd, replicates": "nd nd nd", "empty controls": "0 of 9"}

Picked from the list: the 2 lowest averages where every replicate gave a value.

| changes | log10 Kd, replicates | empty controls |
|---|---|---|
| N37W/W56H/P101I | 0.71 0.81 0.59 | 1 of 9 (3.34) |
| Y31L/S33P/N37K | 1.41 1.10 1.34 | 3 of 9 (3.77) |

Nonspecific signal, from three strains lacking the peptide, appeared in 18% of pairings of library AAYL50, centred on 4.19 (5% of these signals below 2.99); values are not corrected for it. Also given: how often the same scFv was detected with the empty control strains, with their mean in brackets.
Parent in this assay: reference entry 0.65, copy in this library 1.68.